From PubChem BioAssay AID602346 (Broad Institute, 2012)
The list shows a part of the results, in another mix than the full data. Activity calls are given as the source filed them. Rule as the data show it: active = inhibition above about 50% (passing the limit was not always enough); inconclusive = no clear call, values can overlap the other calls; inactive = below about 31%.

Experiment: blockers of Vif multimerization in cells – imaging, HEK293T, single point, primary screen (AID 602346)
Conditions: Vif self-association by quenched fluorescence, 24 h, at 7.49 µM, active compounds read high

SMILES | inhibition
Cc1ccc(N/C(=N/P(=O)(N2CCOCC2)N2CCOCC2)N2CCOCC2)cc1 | inactive: 0.0115%
NC(=O)c1cc([N+](=O)[O-])cc([N+](=O)[O-])c1N | inactive: -4.6%
Clc1ccc(Cl)c(NC2=NCC(CBr)S2)c1 (stereo not given) | inactive: -9.53%
COc1ccccc1OP(=O)(Nc1ccc(C)cn1)Oc1ccccc1OC | inactive: -1.34%
Cc1ccc(OP(=O)(Nc2nccs2)Oc2ccc(C)cc2)cc1 | active: 53.4%
Oc1ccccc1CNc1ccccn1 | inactive: 3.88%
O=C(NC(Sc1ccncn1)C(Cl)(Cl)Cl)c1ccccc1 (stereo not given) | inactive: -6.17%
CC(C)CC(=O)NC(Sc1ccc(Cl)cc1)C(Cl)(Cl)Cl (stereo not given) | inactive: 1.47%
Nc1cc(N)c2nonc2c1[N+](=O)[O-] | inactive: -0.203%
O=[N+]([O-])C1C(O)C(O)C([N+](=O)[O-])C(O)C1O (stereo not given) | inactive: 0.412%
CN(C)P(=O)(N(C)C)n1c(Nc2ccccc2)nnc1-c1ccccc1 | inactive: -11.9%
O=P(Nc1nc2ccc(Cl)cc2s1)(c1ccccc1)c1ccccc1 | inactive: -4.99%
O=C(O)c1ccccc1[As](=O)(O)O | inactive: 8.24%
CC(=O)Nc1ccc([As](=O)(O)O)cc1 | inactive: 0.96%
CCCC1OP(N)(=O)OCC1CC (stereo not given) | inactive: -7.04%
CCOP(=O)(Nc1ccccc1)OCC | inactive: 2.62%
Cc1cc(SC(NC(=O)c2ccc(F)cc2)C(Cl)(Cl)Cl)ncn1 (stereo not given) | inactive: -1.99%
CN(C(=O)Cc1ccc(Cl)c(Cl)c1)[C@H]1CCCC[C@@H]1N1CCCC1 | inactive: 2%
Cc1ccc(NP(=O)(Oc2ccccc2F)Oc2ccccc2F)nc1 | inactive: 4%
Nc1cccc2ccc([As](=O)(O)O)cc12 | inactive: -9.13%

SMILES | inhibition
CCN(N=Nc1nonc1N)c1nonc1N | inactive: -7.57%
c1ccc(-c2nn[nH]n2)c(-c2nn[nH]n2)c1 | inactive: 0.618%
Cc1ccc(NP(=O)(Oc2cccc(C)c2)Oc2cccc(C)c2)nc1 | inactive: 0.258%
O=C(NC1CCS(=O)(=O)C1)NP(=S)(Oc1ccccc1)Oc1ccccc1 (stereo not given) | inactive: 2.85%
CCNC(=S)/N=C(\N)N[N+](=O)[O-] | inactive: 7.56%
O=P1(N(CCCl)CCCl)OCCC2CCCCN21 (stereo not given) | inactive: -3.28%
O=C(OC1CN2CCC1CC2)c1ccccc1 (stereo not given) | inactive: -4.9%
CCC(=O)N1C2C3N(C(=O)CC)C1C1N(C(=O)CC)C(C(N1C(=O)CC)N3C(=O)CC)N2C(=O)CC | inactive: 7.99%
COC(=O)c1cc2c(s1)N=C(c1ccccc1)N(C)P2(=O)N1CCOCC1 (stereo not given) | inactive: 5.94%
Cc1ccc(OP(=O)(Nc2ccccn2)Oc2ccc(C)cc2)cc1 | inactive: -5.83%
CC(=O)NC(SC(=S)N(CC(C)C)CC(C)C)C(Cl)(Cl)Cl (stereo not given) | inactive: -0.0705%
Cc1ccccc1OP(=O)(Nc1ccccn1)Oc1ccccc1C | inactive: -1.45%
CC(NC(=O)COC(=O)C(O)(c1ccccc1)c1ccccc1)c1ccccc1 (stereo not given) | inactive: -3.78%
CN(C)C(=O)Oc1noc2ccccc12 | inactive: 4.5%
O=c1c2cc([N+](=O)[O-])ccc2[nH]c2c([N+](=O)[O-])cc([N+](=O)[O-])cc12 | inactive: -1.16%
O=P1(Nc2nc3ccc(Cl)cc3s2)COc2ccccc2O1 (stereo not given) | inactive: 0.741%
CCOc1ccc(C2=NCC(CBr)S2)cc1 (stereo not given) | inactive: -8.68%
CC(C)(C)C(=O)NC(Sc1ccccc1)C(Cl)(Cl)Cl (stereo not given) | inactive: 1.56%
CCc1cc(O)c([N+](=O)[O-])c(C)c1[N+](=O)[O-] | inactive: 15.6%
Cc1ccccc1CN(C)C(=O)COC(=O)C(O)(c1ccccc1)c1ccccc1 | inactive: -1.49%

SMILES | inhibition
C[C@@H]1C=CCP(=O)(Oc2ccccc2)O1 (stereo not given in full) | inactive: -2.64%
C[C@H]1OP(=O)(Oc2ccccc2)C[C@@H]2O[C@@H]21 (stereo not given in full) | inactive: -0.996%
N#C/C(=C\c1ccc(N(CCBr)CCBr)cc1)C(N)=O | inactive: 5.82%
CC(=O)c1ccc(N2CC2c2ccncc2)cc1 (stereo not given) | inactive: 0.448%
COC(=O)C1(C)COP(=O)(NCc2ccccc2)OC1 (stereo not given) | inactive: -7.3%
CC(=O)Nc1ccc([As](=O)(O)O)c(O)c1 | inactive: -12.2%
CC(=O)Nc1ccc(Oc2c([N+](=O)[O-])cc([N+](=O)[O-])cc2[N+](=O)[O-])cc1 | inactive: 15.3%
O=P(Nc1nccs1)(c1ccccc1)c1ccccc1 | inactive: 6.53%
c1nnnn1CCn1cnnn1 | inactive: 7.54%
CN(C)C1(CNC(=O)c2ccc(Cl)c(S(N)(=O)=O)c2)CCCCC1 | inactive: -10.9%
O=P(Nc1ccccn1)(c1ccc(Br)cc1)c1ccc(Br)cc1 | inactive: -16.3%
COc1ccc(N)c([N+](=O)[O-])c1[N+](=O)[O-] | inactive: 4.93%
C[C@H]1OP(=O)(Oc2ccccc2)[C@H](O)[C@H](O)[C@H]1N=[N+]=[N-] (stereo not given in full) | inactive: -1.44%
O=[As](O)(c1ccccc1)c1ccc(O)cc1 | inactive: -16.7%
O=[N+]([O-])c1ncn(CCn2cnc([N+](=O)[O-])n2)n1 | inactive: -2.29%
CC(=O)NC(SC(=S)N(C)C)C(Cl)(Cl)Cl (stereo not given) | inactive: 0.897%
O=[N+]([O-])c1ccc(O)c(/C=N/Nc2ccc([N+](=O)[O-])cc2[N+](=O)[O-])c1 | inactive: -19.6%
O=C(OC1CN2CCC1CC2)c1cccc(Cl)c1 (stereo not given) | inactive: -11.5%
Nc1ccc([As](=O)(O)c2ccc([N+](=O)[O-])cc2)cc1 | inactive: 1.29%
C(Cc1nn[nH]n1)Cc1nn[nH]n1 | inactive: 6.29%
